One data set deals with mice. In words: Jumping test in mice (naloxone-induced withdrawal jumping). Format: in vivo. The conditions noted are these: test substance i.p. seven times over two days, 30 mg/kg naloxone i.p.
The subject of the next data set is conscious Beagle dogs. In words: ECG, conscious dog. The conditions noted are these: 10 μg/kg i.v.
In a further data set the target is ORL1 receptor (Homo sapiens, UniProt P41146). In words: ORL1 receptor binding assay with 3H-nociceptin/orphanin FQ, membranes of recombinant CHO-ORL1 cells.
The next data set has as its target human μ-opiate receptor (Homo sapiens, UniProt P35372). Kind of data set: μ-opiate receptor binding, [3H]-naloxone displacement, CHO-K1 membrane preparation.
Setting [1] is: read-out: ORL1 human Ki, No. 1-49.

Chains of the proteins cited; added tags and fusions are not shown. Lines headed by an entry give the natural chain unless they say otherwise; changes in a name come on top.
UniProt P41146: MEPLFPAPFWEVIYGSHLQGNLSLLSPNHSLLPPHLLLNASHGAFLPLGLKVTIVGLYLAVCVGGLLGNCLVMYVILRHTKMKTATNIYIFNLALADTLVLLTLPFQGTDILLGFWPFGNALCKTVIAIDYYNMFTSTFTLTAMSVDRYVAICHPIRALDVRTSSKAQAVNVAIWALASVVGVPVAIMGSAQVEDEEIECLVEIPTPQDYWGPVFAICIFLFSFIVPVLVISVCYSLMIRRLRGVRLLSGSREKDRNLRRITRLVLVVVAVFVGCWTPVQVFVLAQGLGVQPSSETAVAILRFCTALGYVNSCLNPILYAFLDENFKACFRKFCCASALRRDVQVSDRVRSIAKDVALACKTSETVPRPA
UniProt P35372, whole entry, looked up: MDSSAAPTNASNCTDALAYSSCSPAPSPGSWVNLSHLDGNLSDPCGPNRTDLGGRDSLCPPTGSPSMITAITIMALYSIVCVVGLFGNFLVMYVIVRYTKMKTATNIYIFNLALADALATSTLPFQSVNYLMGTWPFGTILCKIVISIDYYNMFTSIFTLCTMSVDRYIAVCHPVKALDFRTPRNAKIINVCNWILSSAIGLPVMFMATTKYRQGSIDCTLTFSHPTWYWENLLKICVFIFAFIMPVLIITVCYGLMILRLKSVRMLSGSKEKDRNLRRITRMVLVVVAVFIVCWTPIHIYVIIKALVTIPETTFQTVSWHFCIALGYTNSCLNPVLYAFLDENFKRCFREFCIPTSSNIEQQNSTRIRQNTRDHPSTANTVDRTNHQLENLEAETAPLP

Where two headings read alike, the source gives them in different places.

Regarding `CN(C)C1(c2cccs2)CCC2(CC1)OCCc1c2[nH]c2ccccc12` (stereo not drawn), the “withdrawal jumping triggered by naloxone” value in the data set with mice is recorded as “no, or only a minimal, withdrawal behaviour”.

As to `CN(C)C1(c2ccccc2)CCC2(CC1)OCCc1c2[nH]c2ccccc12` (stereo not drawn), in the data set on mice, the “withdrawal jumping triggered by naloxone” value is listed as “no, or only a minimal, withdrawal behaviour”. Besides, in the data set on conscious Beagle dogs, the “Heart rate observation” value is “Significant Bradycardia”, the PR interval entry is reported as “No effect on the PRinterval”, the “QTc [van der Water]” value is listed as “Non-significant extension” and the heart rate change entry is reported as “(heart rate: −40%)”. Besides, the “increase in the QRS time” value in the data set on conscious Beagle dogs (slight, significant) was “Slight (<10%) significant”.

On to `CN(C)C1(c2ccccc2)CCC2(CC1)c1[nH]c3ccccc3c1CCN2C(=O)c1ccc(C(F)(F)F)cc1F` (stereo not drawn), for which the ORL1/μ ratio on ORL1 receptor (No. 50-145) is listed as 0.48. In addition, the Ki (as a rule, a measure of affinity in units of concentration, obtained from inhibition or displacement) at ORL1 receptor (read-out: ORL1, Ki, No. 50-145) worked out at 65 nM; on human μ-opiate receptor (read-out: μ, Ki, No. 50-145), 31 nM.

In the case of `CN(C)C1(c2ccccc2)CCC2(CC1)OCCc1c2[nH]c2ccc(-c3cccnc3)cc12` (stereo not drawn), the “ORL-1 [1 μM], % inhibition” value at ORL1 receptor stood at 5%. Besides, the “μ-opiate-receptor [1 μM], % inhibition” value on human μ-opiate receptor was found to be 89%.

Consider `CN(C)C1(c2ccccc2)CCC2(CC1)OCCc1c2[nH]c2cc(Cl)cc(Cl)c12` (stereo not drawn), for which the “ORL-1 [1 μM], % inhibition” value at ORL1 receptor is listed as 32%. In addition, the “μ-opiate-receptor [1 μM], % inhibition” value on human μ-opiate receptor is reported as 97%.

Turning to `Cc1ccccc1C(=O)N1CCc2c([nH]c3ccccc23)C12CCC(c1ccccc1)(N(C)C)CC2` (stereo not drawn), the ORL1/μ ratio at ORL1 receptor (No. 50-145) amounted to 0.65. The Ki worked out at 31 nM on ORL1 receptor (read-out: ORL1, Ki, No. 50-145) and 20 nM on human μ-opiate receptor (read-out: μ, Ki, No. 50-145).

Turning to `CC1Cc2c([nH]c3ccc(Br)cc23)C2(CCC(c3ccccc3)(N(C)C)CC2)O1` (stereo not drawn), the “ORL1/μ Ratio calculated as Ki(μ)/Ki(ORL1)” value on ORL1 receptor (No. 1-49) is 0.45. Further, the Ki on ORL1 receptor (setting [1]) was 20 nM; at human μ-opiate receptor (read-out: μ Ki, No. 1-49), 10 nM.

For `CN(C)C1(Cc2ccccc2)CCC2(CC1)c1[nH]c3ccccc3c1CCN2C(=O)c1ccccc1[N+](=O)[O-]` (stereo not drawn), the “ORL1/μ Ratio calculated as Ki(μ)/Ki(ORL1)” value at ORL1 receptor (No. 1-49) is recorded as 0.32. The Ki worked out at 3.8 nM at ORL1 receptor (setting [1]) and 1.2 nM on human μ-opiate receptor (read-out: μ Ki, No. 1-49).

As for `CNC1(c2ccccc2)CCC2(CC1)OCCc1c2[nH]c2ccc(OC)cc12` (stereo not drawn), the “ORL1/μ ratio calculated as Ki(μ)/Ki(ORL1) (only for measured Ki values)” value at ORL1 receptor (comparison compounds) is listed as 0.03. Besides, the Ki at ORL1 receptor (read-out: ORL-1 Ki, printed in the % inhibition column) worked out at 69 nM; on human μ-opiate receptor (read-out: μ-opiate-receptor Ki, printed in the % inhibition column), 2.4 nM.

On to `CC(=O)N1CCc2c([nH]c3ccccc23)C12CCC(c1ccccc1)(N(C)C)CC2` (stereo not drawn), for which the “ORL1/μ Ratio calculated as Ki(μ)/Ki(ORL1)” value at ORL1 receptor (No. 1-49) is recorded as 1.98. Besides, the Ki at ORL1 receptor (setting [1]) came to 2.9 nM; on human μ-opiate receptor (read-out: μ Ki, No. 1-49) it was 6 nM.

`CN(C)C1(c2ccccc2)CCC2(CC1)c1[nH]c3ccccc3c1CCN2C(=O)c1cccs1` (stereo not drawn): on ORL1 receptor (No. 50-145), the ORL1/μ ratio is 1.09. Besides, the Ki on ORL1 receptor (read-out: ORL1, Ki, No. 50-145) was 32 nM; at human μ-opiate receptor (read-out: μ, Ki, No. 50-145) it was 35 nM.

In the case of `CN(C)C1(c2ccccc2)CCC2(CC1)c1[nH]c3ccccc3c1CCN2C(=O)c1cc(F)cc(C(F)(F)F)c1` (stereo not drawn), at ORL1 receptor (No. 50-145), the ORL1/μ ratio is listed as 0.41. The Ki was 37 nM at ORL1 receptor (read-out: ORL1, Ki, No. 50-145) and 15 nM on human μ-opiate receptor (read-out: μ, Ki, No. 50-145).

As for `CC(=O)N1CCc2c(oc3ccccc23)C12CCC(c1ccccc1)(N(C)C)CC2` (stereo not drawn), the “ORL-1 [1 μM], % inhibition” value on ORL1 receptor came to 33%. Also, on human μ-opiate receptor, the “μ-opiate-receptor [1 μM], % inhibition” value was 78%.

Take `Cc1cccc(C(=O)N2CCc3c([nH]c4ccccc34)C23CCC(c2cccc(F)c2)(N(C)C)CC3)c1` (stereo not drawn): the ORL1/μ ratio at ORL1 receptor (No. 50-145) amounted to 0.91. The Ki was determined as 11 nM at ORL1 receptor (read-out: ORL1, Ki, No. 50-145) and 10 nM on human μ-opiate receptor (read-out: μ, Ki, No. 50-145).

Turning to `CN(C)C1(c2ccccc2)CCC2(CC1)c1[nH]c3ccccc3c1CC[S+]2[O-]` (stereo not drawn), on ORL1 receptor (No. 1-49), the “ORL1/μ Ratio calculated as Ki(μ)/Ki(ORL1)” value is on record as 0.94. For the same molecule, the Ki at ORL1 receptor (setting [1]) was determined as 60 nM; at human μ-opiate receptor (read-out: μ Ki, No. 1-49), 60 nM.

For `Cc1ccc2[nH]c3c(c2c1)CCOC31CCC(c2ccccc2)(N(C)C)CC1` (stereo not drawn), the “ORL1/μ Ratio calculated as Ki(μ)/Ki(ORL1)” value on ORL1 receptor (No. 1-49) is 0.60. Besides, the Ki worked out at 4.5 nM at ORL1 receptor (setting [1]) and 2.7 nM at human μ-opiate receptor (read-out: μ Ki, No. 1-49).

As to `CN(C)C1(c2cccc(F)c2)CCC2(CC1)c1[nH]c3ccccc3c1CCN2C(=O)c1cc(F)cc(F)c1` (stereo not drawn), the ORL1/μ ratio at ORL1 receptor (No. 50-145) came out at 1.06. Moreover, the Ki on ORL1 receptor (read-out: ORL1, Ki, No. 50-145) was found to be 3.5 nM; on human μ-opiate receptor (read-out: μ, Ki, No. 50-145), 3.7 nM.

As to `CN(C)C1(Cc2ccccc2)CCC2(CC1)c1[nH]c3ccccc3c1CCN2C(=O)Cc1ccccc1` (stereo not drawn), the ORL1/μ ratio at ORL1 receptor (No. 50-145) was determined as 0.54. Further, the Ki at ORL1 receptor (read-out: ORL1, Ki, No. 50-145) turned out to be 9.9 nM; on human μ-opiate receptor (read-out: μ, Ki, No. 50-145), 5.3 nM.

As for `CN(C)C1(c2cccc(F)c2)CCC2(CC1)c1[nH]c3ccccc3c1CCN2C(=O)c1ccco1` (stereo not drawn), the ORL1/μ ratio at ORL1 receptor (No. 50-145) came out at 3.14. Also, the Ki came out at 22 nM at ORL1 receptor (read-out: ORL1, Ki, No. 50-145) and 69 nM at human μ-opiate receptor (read-out: μ, Ki, No. 50-145).

As for `CC(=O)N1CCc2c([nH]c3ccccc23)C12CCC(c1ccc(F)cc1)(N(C)C)CC2` (stereo not drawn), on ORL1 receptor (No. 1-49), the “ORL1/μ Ratio calculated as Ki(μ)/Ki(ORL1)” value is on record as 0.55. The Ki on ORL1 receptor (setting [1]) stood at 6 nM; at human μ-opiate receptor (read-out: μ Ki, No. 1-49), 3.3 nM.

Regarding `Cc1ccc2[nH]c3c(c2c1)CCNC31CCC(c2ccccc2)(N(C)C)CC1` (stereo not drawn), at ORL1 receptor (No. 1-49), the “ORL1/μ Ratio calculated as Ki(μ)/Ki(ORL1)” value is 0.47. Besides, the inhibition constant Ki on ORL1 receptor (setting [1]) was found to be 30 nM; on human μ-opiate receptor (read-out: μ Ki, No. 1-49), 20 nM.

Turning to `CN(C)C1(c2ccccc2)CCC2(CC1)c1[nH]c3ccccc3c1CCN2C(=O)c1cccc([N+](=O)[O-])c1` (stereo not drawn), on ORL1 receptor (No. 50-145), the ORL1/μ ratio turned out to be 0.51. Besides, the Ki at ORL1 receptor (read-out: ORL1, Ki, No. 50-145) was found to be 69 nM; at human μ-opiate receptor (read-out: μ, Ki, No. 50-145), 35 nM.

As to `CN(C)C1(CCc2ccccc2)CCC2(CC1)c1[nH]c3ccccc3c1CCN2C(=O)c1c(F)c(F)c(F)c(F)c1F` (stereo not drawn), on ORL1 receptor, the “ORL-1 [1 μM], % inhibition” value was found to be 32%. In addition, the “μ-opiate-receptor [1 μM], % inhibition” value on human μ-opiate receptor is given as 99%.

For `CN(C)C1(c2ccccc2)CCC2(CC1)c1[nH]c3ccccc3c1CCN2C(=O)c1cc(F)ccc1F` (stereo not drawn), on ORL1 receptor (No. 50-145), the ORL1/μ ratio is reported as 0.42. The Ki on ORL1 receptor (read-out: ORL1, Ki, No. 50-145) turned out to be 4.5 nM; at human μ-opiate receptor (read-out: μ, Ki, No. 50-145) it was 1.9 nM.

With `CN(C)C1(c2ccccc2)CCC2(CC1)c1[nH]c3ccccc3c1CCN2C(=O)c1cc(C(F)(F)F)ccc1F` (stereo not drawn), on ORL1 receptor (No. 50-145), the ORL1/μ ratio is reported as 0.39. In addition, the Ki on ORL1 receptor (read-out: ORL1, Ki, No. 50-145) worked out at 49 nM; on human μ-opiate receptor (read-out: μ, Ki, No. 50-145), 19 nM.

Take `CN(C)C1(c2ccccc2)CCC2(CC1)c1[nH]c3ccccc3c1CCN2C(=O)c1c(F)c(F)c(F)c(F)c1F` (stereo not drawn): at ORL1 receptor (No. 1-49), the “ORL1/μ Ratio calculated as Ki(μ)/Ki(ORL1)” value was 0.32. In addition, the Ki at ORL1 receptor (setting [1]) was 130 nM; at human μ-opiate receptor (read-out: μ Ki, No. 1-49), 41 nM.

Consider `CN(C)C1(c2ccccc2)CCC2(CC1)OC1CCCCC1c1c2[nH]c2ccccc12` (stereo not drawn), for which the “ORL1/μ Ratio calculated as Ki(μ)/Ki(ORL1)” value on ORL1 receptor (No. 1-49) was 0.62. Moreover, the Ki is 110 nM at ORL1 receptor (setting [1]) and 70 nM at human μ-opiate receptor (read-out: μ Ki, No. 1-49).

The values above are taken from patent US8034936B2, “Spirocyclic cyclohexane compounds useful to treat substance dependency” (Gruenenthal GmbH, priority 2005, dated 2011).
